This note sets out measurements from paper PMC9706574, “A Versatile and Sustainable Multicomponent Platform for the Synthesis of Protein Degraders: Proof-of-Concept Application to BRD4-Degrading PROTACs” (Journal of Medicinal Chemistry, 2022).

This assay concerns the target BRD4 (Homo sapiens, UniProt O60885). The assay is described as follows: BRD4 degradation by Western blot analysis in MDA-MB-231 cells. To be noted: 1 μM. (In general: Immunoblotting shows a protein as a band on a membrane.)

Turning to `Cc1ncsc1-c1ccc(CNC(=O)[C@@H]2C[C@H](O)CN2C(=O)[C@@H](NC(=O)COCCOCCOCCNC(=O)C[C@@H]2N=C(c3ccc(Cl)cc3)c3c(sc(C)c3C)-n3c(C)nnc32)C(C)(C)C)cc1` (relative stereo) [cis-MZ1, reference compound], the “Densitometry (% of control), BRD4-immunoreactive band relative to DMSO vehicle” value (4 h) was 51,7 % of control and the “Densitometry (% of control), BRD4-immunoreactive band relative to DMSO vehicle” value (8 h) is 83,6 % of control.

`Cc1ncsc1-c1ccc(CNC(=O)[C@@H]2C[C@@H](O)CN2C(=O)[C@@H](NC(=O)COCCOCCOCCNC(=O)C[C@@H]2N=C(c3ccc(Cl)cc3)c3c(sc(C)c3C)-n3c(C)nnc32)C(C)(C)C)cc1` [MZ1, reference compound]: under “4 up to 24 h”, the “BRD4 degradation in time-course experiments (in words)” value is on record as “acted as a BRD4 degrader”. Further, the “Densitometry (% of control), BRD4-immunoreactive band relative to DMSO vehicle” value is 10,7 % of control (4 h) and 8,5 % of control (8 h).
